Reference: patent US11135306B2, “Antibody-drug conjugates” (CHO Pharma Inc., priority 2016, dated 2021)

System: BT474 cells
Test: Cytotoxicity assay (CellTiter-Glo) in BT474 cells
Assay type: cell-based
Conditions: BT474, FIG. 9, tested concentrations

For “TRZ: IgG1κ anti-HER2 trastuzumab TRZ; Herceptin, Roche (native Herceptin)”, the “cytotoxicity (in words)” value was “minimal cytotoxicity”.
